Measurements reported in patent publication US20020187534A1, “Treating cancer by increasing intracellular malonyl CoA levels” (priority 1999, published 2002).

System: CPT-1
Test: Carnitine palmitoyltransferase-1 (CPT-1) assay in permeabilized MCF-7 cells
Format: cell-based, human
Method: MCF-7 cells were plated in RPMI 1640 with 10% fetal bovine serum at 1×10^6 cells in six-well plates in triplicate. Following overnight incubation at 37° C., medium was removed and replaced with 700 μl of assay medium consisting of: 50 mM imidazole, 70 mM KCl, 80 mM sucrose, 1 mM EGTA, 2 mM MgCl2, 1 mM DTT, 1 mM KCN, 1 mM ATP, 0.1% fatty acid free bovine serum albumin, 70 μM palmitoyl-CoA, 0.25 μCi (methyl-^14C]L-camitine, 40 μg digitonin with or without 20 μM malonyl-CoA or other indicated inhibitors.
After incubation for 3 or 6 minutes at 37° C., the reaction was stopped by the addition of 500 μl of ice-cold 4 M perchloric acid. Cells were then harvested and centrifuged at 10,000× g for 5 min. The pellet was washed with 500 μl ice cold perchloric acid and centrifuged again. The resulting pellet was resuspended in 800 μl dH2O and extracted with 150 μl of butanol. The butanol phase was counted by liquid scintillation and represents the acylcarnitine derivative.

C/C=C/C/C=C/CCC(=O)[C@H]1O[C@H]1C(N)=O [cerulenin]
direct inhibition of CPT-1: does not inhibit CPT-1 directly
CPT-1 activity versus vehicle control (10 μg/ml): slight, but not statistically significant increase
